AlphaSeq binding of Ab-14 heavy chain variants to a spike HR2 peptide

Reference: Li et al. 2023, doi:10.1038/s41467-023-39022-2. File: FLAb, binding data.

Target: peptide PDVDLGDISGINAS, taken from heptad repeat 2 (HR2) of SARS-CoV-2 spike.

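Phage display of a naive human antibody library on the peptide gave the parent. The variants were designed computationally from a first round of random CDR variants and then made and measured. Group labels follow the data file (Ctrl: baseline library sampled from a position-specific scoring matrix, with some repeated check sequences; Rand: our label for a block that the file lists under HC and that is probably the random mutants of the ten best first-round binders; En: ensemble of fine-tuned language models; GP: Gaussian process model; GPLM: also part of the Gaussian process libraries; HC: hill climbing; Gen: genetic algorithm; Gibbs: Gibbs sampling; a sequence that several methods proposed may carry one label only). The assay is AlphaSeq: two haploid yeast populations carry antibody and antigen on their surface. The frequency of each diploid, read from paired DNA barcodes, reflects how well the two displayed proteins bind. A regression on co-assayed BCL2-family reference pairs converts the normalised counts of each replicate to an apparent Kd. The assay was run in six technical replicates.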

Each scFv is VH, three GGGGS repeats, VL, as in the parent Ab-14, and differs from it in the CDRs of the heavy chain only.
VH: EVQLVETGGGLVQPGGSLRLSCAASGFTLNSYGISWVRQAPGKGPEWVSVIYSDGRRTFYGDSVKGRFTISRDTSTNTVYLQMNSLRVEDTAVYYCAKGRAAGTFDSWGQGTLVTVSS
VL: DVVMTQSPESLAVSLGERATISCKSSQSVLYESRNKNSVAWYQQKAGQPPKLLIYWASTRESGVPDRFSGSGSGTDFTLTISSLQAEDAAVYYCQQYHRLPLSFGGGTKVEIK

Each variant is given by its three heavy chain CDRs, as the data file delimits them; those of the parent are GFTLNSYGIS, VIYSDGRRTFYGDSVK, GRAAGTFDS.
Values are log10 of the apparent Kd in nM; lower means stronger binding.
A mean of the replicates is given; it leaves out those without a signal.
A pair that was not seen in any replicate is written "no signal"; this usually means weak binding, but a binder can also be missed.

mean log10 Kd (nM),seen in,empty controls,CDR-H1,CDR-H2,CDR-H3,group
0.54,6/6,0/18,GFWLNEYGIS,VIYSDGRRTFYGDSVK,GREAGTFDT,GP_Gen
0.04,6/6,0/18,GFSLNSYGIS,VIYSDGRRTFYSDNVK,GRTAGTFDS,GP_Gen
no signal,0/6,0/18,GEGLDEYGIS,VIYADGSRSSYTDKVK,GHNFGLKMV,En_Gibbs
no signal,0/6,1/18,GFTLNSYGIS,VIYSDGLRTFYHDSVK,GRAAGTFDS,Ctrl
1.05,6/6,1/18,GFELNSYGIS,VIYSDGRRTFYSDSVK,GSTAGTFDS,GP_Gen
0.39,3/6,0/18,GFDLNEYGIS,VIYADGRRTFYSDSVK,GETAGTFDE,En_HC
-0.34,6/6,2/18,GFDLNEYGIS,VIYADGKRTAYADSVK,GNNAGTFDL,En_Gen
no signal,0/6,0/18,KFTLNSYGIS,VIYSDGMRTFYSDSVK,GRTAGTFDS,GP_Gibbs
no signal,0/6,1/18,GESLNEYGIS,VIYADGLRSKYADKFK,GQEAGYFDV,En_Gibbs
no signal,0/6,0/18,GFDINEYGIS,VIYADGMRSYYDGKVK,GSNGDLLEV,En_Gibbs
no signal,0/6,0/18,GFLLNDYGIS,VIYSDGRRTFYKDSVK,GRTAGTFIS,GP_HC
-0.48,6/6,0/18,GFDLEDYGIS,VIYADGRRTFYSDSVK,GETAGTFDS,En_HC
1.38,5/6,0/18,GFTLNSYGIS,VIYSDGKRTFYGDAVK,GEAAGTFDL,GPLM_Gibbs
no signal,0/6,0/18,GFTLNKYGIS,VIYSDGRRTFYGDSVK,GQAALTFDS,Ctrl
no signal,0/6,0/18,GKTLNEYGIS,VIYSDGRRTFYGDSVK,GRAAGTFDL,GP_HC
1.34,4/6,0/18,GFTLDSYGIS,VIYSDGRRTFYDDSVK,GQAAGTFDS,GP_HC
0.45,1/6,0/18,GDGLLEMGIS,VIYADGMREAYVEDVK,GQTGGTFVL,En_Gibbs
no signal,0/6,1/18,GFDLNEYGIS,VIYADGVQRFYTDDVK,GGNQGGFVL,En_Gibbs
no signal,0/6,0/18,GFVFDEYGIS,VIYADGKRQFYQDKVK,GENTGNFDI,En_Gibbs
0.58,6/6,0/18,GFSLNSYGIS,VIYSDGRRTFYGDRVK,GEAAGTFDS,GPLM_Gen
0.61,6/6,0/18,GFELNSYGIS,VIYSDGRRTFYGDSVK,GQTAGTFDS,GPLM_Gen
-0.47,6/6,0/18,GFDLNEYGIS,VIYADGLRTAYADSVK,GNVAGTFDV,En_Gen
0.35,6/6,0/18,GFDLNSYGIS,VIYSDGRRTFYGDSVK,GRIAGTFDL,GP_Gibbs
0.75,5/6,0/18,GFPLNEYGIS,VIYSDGRRTFYGDSVK,GRMAGTFDS,GP_Gibbs
-0.20,6/6,0/18,GFDLNEYGIS,VIYADGQRTFYADSVK,GENAGTFDM,En_Gen
no signal,0/6,0/18,GFTLNSYAIS,VIYSDGRRTFYSDSVK,ERAGGTSDS,Rand
no signal,0/6,0/18,GFTLDSYGIS,VIYADGRRTFYGDSVK,GRAAGTFMS,GP_HC
no signal,0/6,1/18,GFQLDEYGIS,VIYADGLRTVYKDAVK,GSDTGLFMI,En_Gibbs
no signal,0/6,0/18,GFDLNEYGIS,VIYADGRRTFYTDNVK,GEVAGTFDL,En_HC
no signal,0/6,0/18,GFTLNSAGIS,VIYSDGRRTFYGDDVK,GRAAGLFDS,Ctrl
0.47,6/6,0/18,GFDLNEYGIS,VIYADGVRTAYIDSVK,GEAAGTFDV,En_HC
no signal,0/6,0/18,GFTLNSYGIS,VIYSDGRRTFYGSSVK,GTAAGTFDC,Ctrl
1.38,6/6,0/18,DFSLNSYGIS,VIYSDGRRTFYGDSVK,GRTAGTFDS,GPLM_Gen
-0.82,6/6,0/18,GFDLNEYGIS,VIYADGRRTAYADDVK,GTNAGTFDV,En_Gen
no signal,0/6,0/18,GFTLNMYGIS,VIYSDGRRTFYGDSVK,TWAAGVGDS,Ctrl
2.24,4/6,0/18,GFTLNSYGIS,VIYADGQRTFYGDFVK,GRAAGTFES,Ctrl
0.18,6/6,0/18,GFTLNEYGIS,VIYSDGKRTFYSDSVK,GRAAGTFDS,GPLM_HC
no signal,0/6,0/18,GFTLNMYGIS,VIYSDGRRTFYLDSVK,GIAAKTFDT,Ctrl
-0.01,6/6,0/18,GFSLNEFGIS,VIYSDGRRTFYGDSVK,GRTAGTFDS,GP_Gen
-0.10,6/6,1/18,GFSLNSYGIS,VIYSDGRRTFYTDSVK,GNEAGTFDS,GP_Gen
-0.05,6/6,0/18,GFTLNSYGIS,VIYADGRRTFYGDSVK,GNAAGTFDD,GP_Gibbs
3.02,1/6,0/18,GFSLLSYGIS,VIYSDGRRTFYGDSVK,GRAAGLFDS,Ctrl
-0.13,6/6,0/18,GFSLNDYGIS,VIYSDGRRTFYIDSVK,GRQAGTFDS,GP_Gen
0.08,6/6,0/18,GFSLDEYGIS,VIYADGRRTFYADSVK,GNSAGTFDK,En_HC
-0.31,6/6,1/18,GFDLEDYGIS,VIYADGRRTAYIDSVK,GEQAGTFDV,En_HC
-0.55,6/6,0/18,GFDLNEYGIS,VIYADGQRTAYADSVK,GKAAGTFDK,En_HC
no signal,0/6,0/18,GFTLNSYGIS,VIYSDGVRTFYGDSVK,TRAAGTFDS,Ctrl
no signal,0/6,0/18,GFTLNSYGIS,VIYSDGRRTFYIDSVK,GLLAGTFDS,GP_HC
no signal,0/6,0/18,GFVFDEYGIS,VIYADGKRQVYQDKVK,GENTGNFDT,En_Gibbs
-1.16,6/6,0/18,GFDLNEYGIS,VIYADGKRKFYADKVK,GENAGTFDV,En_HC
2.38,3/6,1/18,GFTLNSYGIS,VIYSDGKRTFYADSVK,GQAAGTFDS,GPLM_Gen
no signal,0/6,0/18,GFTLNSYGIS,VIYSDGRRTFYADSVE,GREADTFDD,Ctrl
0.28,6/6,0/18,GFSLNSYGIS,VIYSDGRRTFYGDSVV,GREAGTFDS,Ctrl
-0.19,6/6,0/18,GFDLNEYGIS,VIYADGRRTQYIDSVK,GENAGTFDS,En_HC
0.43,6/6,0/18,GFSLNEYGIS,VIYSDGRRTFYQDKVK,GRTAGTFDS,GP_Gibbs
no signal,0/6,0/18,GFSLNEYGIS,VIYSDGRRTFYMDQVK,GRTAGTFDS,GP_Gen
-0.02,6/6,0/18,GFTLDQYGIS,VIYADGRRTFYGDSVK,GRAAGTFDS,GP_HC
0.73,6/6,0/18,GFELNSYGIS,VIYSDGRRTFYKDSVK,GQAAGTFDS,GPLM_Gibbs
0.54,6/6,1/18,GFNLNEYGIS,VIYADGRRTFYADSVK,GQIAGTFIV,En_HC
-0.36,6/6,0/18,GFDLDEYGIS,VIYADGQRTAYSDSVK,GNQAGTFDI,En_Gen
1.29,4/6,0/18,GFELNSYGIS,VIYSDGRRTFYTDSVK,GHAAGTFDS,GP_Gen
2.14,3/6,0/18,GFDINEYGIS,VIYADGKKTAFANSFK,GEWAGTFDD,En_Gibbs
1.17,6/6,0/18,GFTLNEYGIS,VIYSDGRRTFYSDSVK,GRGAGTFDS,GP_HC
-0.06,6/6,0/18,GFDLNEYGIS,VIYADGQRTAYADSVK,GNTAGTFDM,En_Gen
1.16,6/6,0/18,GFSLNSYGIS,VIYSDGRRTFYGDQVK,GQAAGTFDT,GP_Gibbs

For reference, 6 entries of the list once more:

CDR-H1	CDR-H2	CDR-H3	group	mean log10 Kd (nM)	seen in	empty controls
GFTLNSAGIS	VIYSDGRRTFYGDDVK	GRAAGLFDS	Ctrl	no signal	0/6	0/18
GFTLNSYGIS	VIYADGQRTFYGDFVK	GRAAGTFES	Ctrl	2.24	4/6	0/18
GFELNSYGIS	VIYSDGRRTFYGDSVK	GQTAGTFDS	GPLM_Gen	0.61	6/6	0/18
GFTLDSYGIS	VIYADGRRTFYGDSVK	GRAAGTFMS	GP_HC	no signal	0/6	0/18
GFTLNSYGIS	VIYSDGKRTFYGDAVK	GEAAGTFDL	GPLM_Gibbs	1.38	5/6	0/18
GFDLNEYGIS	VIYADGKRTAYADSVK	GNNAGTFDL	En_Gen	-0.34	6/6	2/18

Empty control strains, which show no peptide, gave a signal in 1% of pairings with all heavy chain designs; the median was 2.08 and 95% of these signals were weaker than 0.84. No background was subtracted. The control count says in how many pairings with the empty strains this scFv gave a signal.
The parent sequence was in this pool as ten entries: three were never detected, three once, and four in most replicates, with averages from 0.34 to 2.37.
In the paper, a design with two or fewer of six values counts as a poor binder.
Values of this round are not directly comparable with the first-round values of the same sequences.